{"source": "patent US20210061712A1", "about": "“COMPOSITE STRUCTURAL MATERIAL COMPOSITIONS RESISTANT TO BIODEGRADATION” (The University of British Columbia, priority 2018, published 2021)", "origin": "cited, not measured here", "system": "Desulfovibrio desulfricans strain", "settings": "pipe's internal wall coated with the oxide in epoxy", "data": [{"substance": "cuprous oxide", "values": [{"measurement": "bacterial corrosion of concrete pipe", "value": "reduce the bacterial corrosion"}]}]}
